Paper PMC3360951 (Chemistry & biology, 2008)
Like-named read-outs stand apart in the source and are kept apart here.

Sequences of proteins named here, by UniProt entry; tags and fusion partners are left off. Residues count along the entry.
UniProt P07288, 25-261: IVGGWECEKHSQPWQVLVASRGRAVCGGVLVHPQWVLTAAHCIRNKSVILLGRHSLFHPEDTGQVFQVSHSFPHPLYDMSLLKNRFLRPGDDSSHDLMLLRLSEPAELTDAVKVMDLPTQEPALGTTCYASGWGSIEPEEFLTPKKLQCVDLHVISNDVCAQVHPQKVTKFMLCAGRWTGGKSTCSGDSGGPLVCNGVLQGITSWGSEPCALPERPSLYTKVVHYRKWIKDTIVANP
UniProt P27487, whole entry, species assumed: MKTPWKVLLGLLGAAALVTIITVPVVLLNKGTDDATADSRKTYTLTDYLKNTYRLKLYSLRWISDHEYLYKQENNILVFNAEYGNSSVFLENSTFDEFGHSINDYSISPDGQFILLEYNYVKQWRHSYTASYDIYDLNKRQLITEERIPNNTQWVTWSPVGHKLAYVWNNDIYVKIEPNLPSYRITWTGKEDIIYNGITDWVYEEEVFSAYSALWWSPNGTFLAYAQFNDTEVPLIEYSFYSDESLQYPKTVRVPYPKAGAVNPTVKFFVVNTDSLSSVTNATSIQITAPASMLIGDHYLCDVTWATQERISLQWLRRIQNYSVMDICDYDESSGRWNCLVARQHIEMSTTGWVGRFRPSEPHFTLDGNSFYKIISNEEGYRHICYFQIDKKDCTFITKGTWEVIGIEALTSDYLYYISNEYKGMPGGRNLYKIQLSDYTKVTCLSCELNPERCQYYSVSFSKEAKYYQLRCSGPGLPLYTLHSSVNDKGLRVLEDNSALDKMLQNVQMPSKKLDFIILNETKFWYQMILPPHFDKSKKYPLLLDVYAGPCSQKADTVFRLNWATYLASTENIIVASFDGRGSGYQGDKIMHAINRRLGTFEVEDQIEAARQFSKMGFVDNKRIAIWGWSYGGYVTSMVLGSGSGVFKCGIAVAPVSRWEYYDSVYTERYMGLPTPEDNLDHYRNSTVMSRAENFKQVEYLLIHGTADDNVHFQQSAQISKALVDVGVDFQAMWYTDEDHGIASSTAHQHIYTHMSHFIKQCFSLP
UniProt P80209, 45-390: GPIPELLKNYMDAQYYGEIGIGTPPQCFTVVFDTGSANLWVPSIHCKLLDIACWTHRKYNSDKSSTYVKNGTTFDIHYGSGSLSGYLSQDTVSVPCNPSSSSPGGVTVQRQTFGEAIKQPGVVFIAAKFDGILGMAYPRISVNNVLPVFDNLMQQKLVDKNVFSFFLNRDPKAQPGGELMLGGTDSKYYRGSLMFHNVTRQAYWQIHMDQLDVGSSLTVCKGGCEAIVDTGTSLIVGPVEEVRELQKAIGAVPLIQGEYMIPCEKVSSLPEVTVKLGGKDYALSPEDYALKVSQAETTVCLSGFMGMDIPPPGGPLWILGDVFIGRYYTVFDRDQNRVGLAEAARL

How the values were obtained:
Assay type in all cases: biochemical
PSA = PSA (Homo sapiens, UniProt P07288); experiment: PSA activity assay, inhibition kinetics by progress curves
[1] = target: dipeptidyl peptidase 4 (DPP-4) (Homo sapiens, UniProt P27487); experiment: Protease specificity: DPP-4 + AP-AFC; settings: DPPIV
cathepsin B = cathepsin B (Homo sapiens, UniProt P07858); experiment: Protease specificity: cathepsin B + Z-RR-AMC
cathepsin D = cathepsin D (Bos taurus, UniProt P80209); experiment: Protease specificity: Cathepsin D Assay Kit

Substance	Ki (PSA)	also measured
Z-K(boro)L [compound 33]	353 ± 23.7 µM	Ki (PSA; listed as Z-K(boro)L): 353 µM
Z-KL(boro)L [compound 36]	5.98 ± 0.24 µM	
Z-KL(boro)Nle [compound 37]	23.6 ± 0.47 µM	
Z-KL-H [compound 11]	> 1000 µM	
Z-KLL-H [compound 9]	171 ± 6.88 µM	
Z-KNle-H [compound 20]	> 1000 µM	
Z-LKSSL [compound 16]	> 1000 µM	
Z-LLL-H (MG132) [compound 17, reference compound]	13.2 ± 0.86 µM	Ki (PSA; listed as Z-LLL-H (MG132)): 13.2 µM
Z-Q(boro)L [compound 32]	265 ± 18.4 µM	Ki (PSA; listed as Z-Q(boro)L): 265 µM
Z-QL-H [compound 12]	> 1000 µM	
Z-QNle-H [compound 21]	> 1000 µM	
Z-SKLL-H [compound 8]	42.4 ± 2.13 µM	
Z-SSK(Ac)L(boro)L [compound 48]	0.294 ± 0.026 µM	
Z-SSK(Boro)Nle [compound 35]	34.2 ± 0.83 µM	
Z-SSK(boro)L [compound 34]	18.5 ± 1.48 µM	
Z-SSKAL-H [compound 7]	173 ± 6.12 µM	
Z-SSKIL-H [compound 4]	37.4 ± 2.43 µM	Ki (PSA; listed as Z-SSKIL-H): 37.4 µM

Substance	Ki (PSA)	also measured
Z-SSKKL-H [compound 5]	57.8 ± 1.14 µM	Ki (PSA; listed as Z-SSKKL-H): 57.8 µM
Z-SSKL(boro)L [compound 39]	~0.065 µM	Ki [1]: > 100 µM; Ki (cathepsin B): > 500 µM; Ki (cathepsin D): > 500 µM
Z-SSKL(boro)Nle [compound 38]	0.398 ± 0.02 µM	
Z-SSKL-H [compound 13]	> 1000 µM	
Z-SSKLL-CH2OH [compound 26]	> 1000 µM	
Z-SSKLL-NH2 [compound 25]	> 1000 µM	
Z-SSKLL-OH [compound 24]	> 1000 µM	
Z-SSKLNle-H [compound 18]	11.2 ± 0.26 µM	
Z-SSKLNle-NH2 [compound 28]	> 1000 µM	
Z-SSKLNle-OH [compound 27]	> 1000 µM	
Z-SSKNle-H [compound 22]	> 1000 µM	
Z-SSKQL-H [compound 3]	21.8 ± 0.51 µM	Ki (PSA; listed as Z-SSKQL-H): 21.8 µM
Z-SSKVL-H [compound 6]	70.7 ± 1.77 µM	Ki (PSA; listed as Z-SSKVL-H): 70.7 µM
Z-SSL(boro)L [compound 47]	3.86 ± 0.29 µM	
Z-SSLKL-H [compound 15]	> 500 µM	
Z-YL-H [compound 10]	514 ± 11.5 µM	
Z_KLNle-H [compound 19]	414 ± 22.5 µM	
